Activation data for 49 compounds are collected here from PubChem BioAssay AID602332 (National Center for Advancing Translational Sciences (NCATS), 2012).

Each structure is given as a SMILES string. The entries are a selection whose mix differs from that of the whole data set. Active and inactive are the calls of the source. Calls follow the shape of the dose curve; as a rule, active = well fitted activation curve with a large enough effect; inconclusive = small, poorly fitted or top-dose-only effect; inactive = no such curve, though single readings can be large or run the other way.

This assay is described as follows: qHTS for Inducers of the Endoplasmic Reticulum Stress Response (ERSR) in Human Glioma: qHTS. Also: % of control where 0% means no effect; nearly all actives have a fitted effect of over 35% in size. Conditions: U87-MG GRP78 promoter luciferase reporter, 16 h; stronger effect = higher value. (In general: qHTS replaces the single test concentration by a dilution series.)
For the compound `N#Cc1ccc(C(=O)NCC2(N3CCCCC3)CCCCC2)cc1`, the activation was inactive: -4.59%.

`CCOC(=O)C(CC)C1=NC(C)(C)Cc2ccccc21.O=[N+]([O-])c1cc([N+](=O)[O-])c(O)c([N+](=O)[O-])c1` (centres undefined): the activation was inactive: 3.09%.

For `N/C(=N\O)c1c(N)no[n+]1[O-]`, the activation is inactive: -5.62%.

`CCOC(=O)N1CCC(Nc2ccc(C)cc2)CC1`: the activation was inactive: -0.0177%.

In the case of `COc1cccc(C(c2nnnn2C(C)(C)C)N2CCC(n3c(=O)[nH]c4ccccc43)CC2)c1OC` (centres undefined), the activation is inactive: -3.07%.

Consider `CCCCn1nnnc1C(c1cccc(OC)c1OC)N1CCC(n2c(=O)[nH]c3ccccc32)CC1` (centres undefined), for which the activation was inactive: -3.69%.

Regarding `O=c1[nH]c2ccccc2n1C1CCN(C(c2cccs2)c2nnnn2C2CCCC2)CC1` (centres undefined), the activation was inactive: 0.395%.

As for `O=C(O)c1cccc(Nc2c([N+](=O)[O-])cc([N+](=O)[O-])cc2[N+](=O)[O-])c1`, the activation was inactive: -6.98%.

As for `O=C(OC1CN2CCC1CC2)C1c2ccccc2C=Cc2ccccc21` (centres undefined), the activation was inactive: -3.99%.

`O=C(NCC1(N2CCOCC2)CCCCC1)c1cc(Br)ccc1Cl`: the activation is inactive: -4.19%.

As to `COc1cc(C(=O)NCC2(N3CCOCC3)CCCCC2)cc(OC)c1C`, the activation was inactive: -3.16%.

`CCCCn1nnnc1C(c1ccccc1)N1CCC(n2c(=O)[nH]c3ccccc32)CC1` (centres undefined): the activation is inactive: -4.67%.

Take `O=c1[nH]c2ccccc2n1C1CCN(C(c2ccnc3ccccc23)c2nnnn2C2CCCC2)CC1` (centres undefined): the activation was inactive: -0.331%.

Turning to `COc1ccc(C(=O)NCC2(N3CCOCC3)CCCCC2)cc1OC`, the activation is inactive: -4.06%.

On to `O=Cc1ccc(N(CCCl)CCCl)cc1`, for which the activation is inactive: 0.255%.

On to `O=c1[nH]c2ccccc2n1C1CCN(C(c2cccs2)c2nnnn2C2CCCCC2)CC1` (centres undefined), for which the activation is inactive: -5.83%.

As for `CCC(CO)(C(=O)OC1CN2CCC1CC2)c1ccccc1` (centres undefined), the activation is inactive: 1.61%.

`COc1cccc(C(=O)N(c2cc(C)cc(C)c2)C2CCN(C(=O)OC(C)(C)C)CC2)c1`: the activation is inactive: -5.32%.

Consider `COc1cc(OC)cc(C(=O)NCC2(N3CCOCC3)CCCCC2)c1`, for which the activation is inactive: -2.59%.

For the compound `COc1cccc(C(c2nnnn2C2CCCC2)N2CCC(n3c(=O)[nH]c4ccccc43)CC2)c1OC` (centres undefined), the activation was inactive: -2.66%.

In the case of `COc1cc(C(=O)NCC2(N3CCOCC3)CCCCC2)cc(OC)c1OC`, the activation was inactive: -3.29%.

Regarding `CN1CCC(Nc2ccc(Cl)cc2)CC1`, the activation is inactive: -0.531%.

For the compound `CN1CCC(Nc2ccc(F)c(Cl)c2)CC1`, the activation was inactive: -2.41%.

For the compound `CCOc1ncccc1C(=O)NCC1(N2CCOCC2)CCCCC1`, the activation was inactive: -3.82%.

Consider `O=c1[nH]c2ccccc2n1C1CCN(C(c2cc3ccccc3o2)c2nnnn2C2CCCC2)CC1` (centres undefined), for which the activation was inactive: -3.42%.

As for `CCCOc1ccc(C(=O)NCC2(N(C)C)CCCCC2)cc1`, the activation is inactive: -0.605%.

For the compound `ClCCN(CCCl)c1ccccc1`, the activation is inactive: -1.41%.

`ClCCN(CCCl)c1ccc(C=C2C=CC=C2)cc1`: the activation was inactive: -7.46%.

Consider `O=C(O)C1(Nc2ccccc2)CCN(Cc2ccccc2)CC1`, for which the activation was inactive: -3.13%.

On to `CC(C)(C)OC(=O)N1CCC(Nc2ccccc2)CC1`, for which the activation was inactive: -1.33%.

Consider `CCN1CCC(Nc2cccc(F)c2)CC1`, for which the activation is inactive: -1.66%.

Consider `COc1ccc(C(c2nnnn2C2CCCCC2)N2CCC(n3c(=O)[nH]c4ccccc43)CC2)cc1` (centres undefined), for which the activation was inactive: -2.79%.

For the compound `CC(C)(C)n1nnnc1C(c1ccnc2ccccc12)N1CCC(n2c(=O)[nH]c3ccccc32)CC1` (centres undefined), the activation was inactive: -1.9%.

For the compound `Cc1ccccc1NC1(C#N)CCN(Cc2ccccc2)CC1`, the activation is inactive: -3.84%.

On to `CN(C)c1ccc(C(=O)NCC2(N3CCCCC3)CCCCC2)cc1`, for which the activation was inactive: 1.26%.

On to `Cn1c(=O)[nH]cc(N(CCCl)CCCl)c1=O`, for which the activation is inactive: -4.43%.

Consider `O=C(NCC1(N2CCCCC2)CCCCC1)c1ccco1`, for which the activation is inactive: -1.95%.

As for `CC(C)(C)c1ccc(C(=O)NCC2(N3CCOCC3)CCCCC2)cc1`, the activation was inactive: -2.34%.

As to `Cc1ccccc1C(=O)NCC1(N(C)C)CCCCC1`, the activation is inactive: 6.33%.

On to `COc1cc(OC)cc(C(=O)NCC2(N3CCCCC3)CCCCC2)c1`, for which the activation was inactive: 2.65%.

As to `O=c1[nH]c2ccccc2n1C1CCN(C(c2ccnc3ccccc23)c2nnnn2C2CCCCC2)CC1` (centres undefined), the activation is inactive: -4.45%.

In the case of `CCC(c1nnnn1C1CCCCC1)N1CCC(n2c(=O)[nH]c3ccccc32)CC1` (centres undefined), the activation is inactive: -2.73%.

Regarding `CN(C)C1(CNC(=O)c2ccc(C(C)(C)C)cc2)CCCCC1`, the activation was inactive: -2.28%.

For `COc1cccc(C(c2nnnn2C2CCCCC2)N2CCC(n3c(=O)[nH]c4ccccc43)CC2)c1OC` (centres undefined), the activation is inactive: -4.34%.

Consider `CC(=O)N(c1ccccc1)C1CCNCC1`, for which the activation was inactive: -2.06%.

Consider `Cc1ccc(NC2(C#N)CCN(Cc3ccccc3)CC2)cc1`, for which the activation was inactive: -1.67%.

With `Fc1ccccc1NC1CCN(Cc2ccccc2)CC1`, the activation is inactive: -2.92%.

`Cc1ccc(Nc2c([N+](=O)[O-])cc([N+](=O)[O-])cc2[N+](=O)[O-])cc1`: the activation was inactive: -5.17%.

On to `Cc1ccc(C(=O)NCC2(N3CCCCC3)CCCCC2)o1`, for which the activation is inactive: -3.88%.
